Reference: US11111242B2, “Pyrrolo[2,3-d]pyrimidinyl, pyrrolo[2,3-b]pyrazinyl and pyrrolo[2,3-d]pyridinyl acrylamides” (Pfizer Inc., priority 2013, dated 2021)

Tested on: IL-15 induced P-STAT5 in human PBMC (total lymphocytes)
Assay: PBMC IL-15 Induced P-STAT5
Assay type: cell-based
Settings: IL-15 stimulated, read-out: PBMC IL15-pSTAT5 IC50
Protocol: PBMC IL-15 Induced P-STAT5
Frozen human PBMC (200-250 million cells/vial) was thawed at 37° C. The cells were transferred to 10 mL warm medium in a 50-mL conical tube, and centrifuged at 1,200 RPM at room temperature for 5 min. The supernatant was aspirated. Cells were suspended in 3 mL warm human plasma and incubated at 37° C. in a tissue culture incubator for 1.5 to 2 h. After adding 47 ml D-PBS (37° C.) to PBMC/FBS suspension, centrifuging at 1,200 RPM at room temperature for 5 min, and aspirating the supernatant, the cells were resuspended in 20 mL warm RPMI medium. Ninety μL of cell suspension were pipetted per well in a 96-well, deep-well, V-bottom plate, and the plate was incubated at 37° C. for 30 min. Five μL of compound were transferred to each well (final 0.2% DMSO), vortex gently and incubate at 37° C. for 15 min; 5 μL 4% DMSO/PBS were added to the control wells. […] Samples were analyzed using a BD Calibur™ or BD FACSCanto™ flow cytometer equipped with the BD High Throughput Sampler.

C=CC(=O)N1CC[C@@H]2CCN(c3ncnc4[nH]ccc34)[C@@H]2C1 (single isomer, unassigned) [Example 8]
IC50: 116 nM
